Entries after “also recorded” stand apart in the source; their conditions may differ.
Legend:
ROMK1 channel = molecular target: T1, ROMK1 channel (Rattus norvegicus, UniProt P35560); experiment: Two-electrode voltage clamp of wild-type ROMK1 channel in Xenopus oocytes; format: cell-based
T1 construct: expressed in transfected cells; host or cells: Xenopus laevis oocytes (cRNA injection)
T1 sequence (P35560 1-391): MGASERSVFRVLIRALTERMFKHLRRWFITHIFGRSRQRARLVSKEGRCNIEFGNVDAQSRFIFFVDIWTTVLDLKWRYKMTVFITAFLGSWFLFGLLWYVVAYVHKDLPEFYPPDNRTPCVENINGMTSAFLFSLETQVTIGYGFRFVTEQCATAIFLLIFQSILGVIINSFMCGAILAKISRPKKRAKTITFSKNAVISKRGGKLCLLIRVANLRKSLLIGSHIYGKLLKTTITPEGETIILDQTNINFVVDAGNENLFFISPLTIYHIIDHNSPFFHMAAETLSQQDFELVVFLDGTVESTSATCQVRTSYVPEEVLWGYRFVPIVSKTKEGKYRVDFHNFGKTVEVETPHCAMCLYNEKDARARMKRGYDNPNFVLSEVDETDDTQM
Description: (§1) Oocytes harvested from Xenopus laevis frogs were digested with collagenase (2 mg/mL) in a solution containing: NaCl, 82.5 mM; KCl, 2.5 mM; MgCl2, 1.0 mM; HEPES, 5.0 mM (pH 7.6) and were agitated on a platform shaker at a rate of 80 rpm for 90 minutes. The oocytes were then rinsed thoroughly with and stored in a solution containing: gentamicin, 50 μg/mL; NaCl, 96 mM; KCl, 2 mM; CaCl2, 1.8 mM; MgCl, 1 mM; HEPES, 5 mM (pH 7.6). Defolliculated oocytes were selected at least 2 hours after the collagenase digestion. To express channels, the corresponding cRNA was directly injected into oocytes. To express the GIRK1/4 channel, GIRK1 and GIRK4 cRNAs were co-injected with either M2 or M4 receptor cRNA. All injections were carried out at least 16 hours after the collagenase treatment. The injected oocytes were stored in an 18° C. incubator.
All three inward-rectifier K^+ channels, GIRK1/4, ROMK1, and IRK1, were studied using a two-electrode voltage clamp amplifier (Oocyte Clamp OC-725C, Warner Instruments Corp.). The resistance of electrodes filled with 3 M KCl were 0.2–0.4 M Ω. To elicit current through the channel, the membrane potential of oocytes was stepped to −80 mV (100–125 ms) and then to +80 mV (100–125 ms) from the holding potential of 0 mV. Background leak currents were obtained by exposing oocytes to solutions containing tertiapin at concentrations greater than 100 fold of Kd. […] The bath solution contained KCl, 100 mM; CaCl, 0.3 mM; MgCl2, 1.0 mM; and HEPES, 10 mM (pH 7.6). To activate the GIRK1/4 channel, ACh (150 μM) was included in the bath solution. Tertiapin concentration was calculated using an extinction coefficient 6.1 mM^−1 cm^−1 at 280 nm wavelength. All toxin-containing solutions were freshly made by diluting stock solutions. Unless specified otherwise, tertiapin used in all experiments were made synthetically as described in Example 6. All other toxins were either recombinant toxins or purchased from Alomone Labs (Jerusalem, Israel). […]

GIRK1/4 channel = molecular target: T2, GIRK1/4 channel (Rattus norvegicus, UniProt P48548+P63251); experiment: cell-based; format: cell-based
T2 construct: expressed in transfected cells; host or cells: Xenopus laevis oocytes (cRNA injection)
T2 sequence (P63251 1-501): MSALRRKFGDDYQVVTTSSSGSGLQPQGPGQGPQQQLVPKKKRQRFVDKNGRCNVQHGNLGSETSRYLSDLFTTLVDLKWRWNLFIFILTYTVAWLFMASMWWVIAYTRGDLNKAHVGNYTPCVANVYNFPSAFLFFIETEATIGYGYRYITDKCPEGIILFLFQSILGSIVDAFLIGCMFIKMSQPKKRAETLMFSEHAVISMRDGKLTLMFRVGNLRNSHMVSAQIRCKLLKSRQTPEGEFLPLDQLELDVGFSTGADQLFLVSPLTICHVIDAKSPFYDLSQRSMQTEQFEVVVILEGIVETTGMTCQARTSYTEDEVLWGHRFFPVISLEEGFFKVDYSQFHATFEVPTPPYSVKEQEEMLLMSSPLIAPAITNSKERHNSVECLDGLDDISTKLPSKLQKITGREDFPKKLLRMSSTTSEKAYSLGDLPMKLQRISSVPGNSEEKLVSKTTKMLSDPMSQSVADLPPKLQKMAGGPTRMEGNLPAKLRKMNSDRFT
T2 sequence (P48548 1-419): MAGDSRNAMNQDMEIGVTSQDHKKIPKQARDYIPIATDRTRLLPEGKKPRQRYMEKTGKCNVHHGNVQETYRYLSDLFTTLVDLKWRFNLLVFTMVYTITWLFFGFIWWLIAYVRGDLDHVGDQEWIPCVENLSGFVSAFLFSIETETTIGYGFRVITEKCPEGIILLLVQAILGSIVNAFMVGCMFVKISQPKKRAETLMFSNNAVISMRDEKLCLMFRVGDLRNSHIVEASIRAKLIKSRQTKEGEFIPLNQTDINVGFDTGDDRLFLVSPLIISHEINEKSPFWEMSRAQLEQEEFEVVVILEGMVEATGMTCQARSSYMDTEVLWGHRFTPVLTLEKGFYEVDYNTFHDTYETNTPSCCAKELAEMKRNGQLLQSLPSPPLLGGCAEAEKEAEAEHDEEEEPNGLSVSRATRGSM

uninjected oocytes = experiment: Currents in uninjected oocytes; format: cell-based, Xenopus laevis
Description: as §1
All three inward-rectifier K^+ channels, GIRK1/4, ROMK1, and IRK1, were studied using a two-electrode voltage clamp amplifier (Oocyte Clamp OC-725C, Warner Instruments Corp.). The resistance of electrodes filled with 3 M KCl were 0.2–0.4 M Ω. To elicit current through the channel, the membrane potential of oocytes was stepped to −80 mV (100–125 ms) and then to +80 mV (100–125 ms) from the holding potential of 0 mV. […] Tertiapin concentration was calculated using an extinction coefficient 6.1 mM^−1 cm^−1 at 280 nm wavelength. […]

[1] = tertiapin and TPNQ at similar concentrations

## CC[C@H](C)[C@@H]1NC(=O)[C@H](CCCNC(=N)N)NC(=O)[C@H](CC(N)=O)NC(=O)[C@@H]2CSSC[C@@H](C(=O)NCC(=O)N[C@@H](CCCCN)C(=O)N[C@@H](CCCCN)C(N)=O)NC(=O)[C@H](CCCCN)NC(=O)[C@H](CCCCN)NC(=O)[C@H](Cc3c[nH]c4ccccc34)NC(=O)[C@H](CSSC[C@H](NC(=O)[C@H](CC(C)C)NC(=O)[C@H](C)N)C(=O)N[C@@H](CC(N)=O)C(=O)N2)NC(=O)[C@H](CCSC)NC(=O)[C@H](Cc2c[nH]cn2)NC(=O)[C@@H]2CCCN2C(=O)[C@H]([C@@H](C)CC)NC(=O)[C@H]([C@@H](C)CC)NC1=O [tertiapin]
ROMK1 channel; relative to Lq2
  affinity for the ROMK1 channel, fold higher than Lq2: 200 fold
ROMK1 channel; [1]
  fraction of current through the ROMK1 channel inhibited: about half
ROMK1 channel; wild-type ROMK1
  sensitivity / affinity of the ROMK1 channel, in words: highly sensitive; also recorded: very sensitive
GIRK1/4 channel
  effect on / sensitivity of the GIRK1/4 channel, in words: highly sensitive
GIRK1/4 channel; [1]
  fraction of current through the GIRK1/4 channel inhibited: about half
Uninjected oocytes
  effect on the currents in uninjected oocytes: did not affect the currents

Reference: US6979572B1, “Compositions and methods for inhibiting inward-rectifier potassium channels” (Trustees of the University of Pennsylvania, priority 1998, dated 2005)
